From patent publication US20070293486A1, “Alpha-Keto Carbonyl Calpain Inhibitors” (SANTHERA PHARMACEUTICALS (SCHWEIZ) AG, priority 2004, published 2007)

Protein sequences, listed by entry. Tags and fused reporters are not part of them. Residues count along the entry.
UniProt G1T4Q9, 1-263: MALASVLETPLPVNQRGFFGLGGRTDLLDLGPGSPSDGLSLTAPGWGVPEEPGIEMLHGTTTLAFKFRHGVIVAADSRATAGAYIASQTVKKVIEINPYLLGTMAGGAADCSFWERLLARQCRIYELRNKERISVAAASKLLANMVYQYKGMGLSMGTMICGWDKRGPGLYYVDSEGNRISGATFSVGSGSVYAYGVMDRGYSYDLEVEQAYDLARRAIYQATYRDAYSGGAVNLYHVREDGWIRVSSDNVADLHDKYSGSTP

Columns and labels:
[1] = target: 20S Proteasome (Oryctolagus cuniculus, UniProt G1T4Q9); assay: 20S Proteasome Assay; conditions: read-out: 20S Prot IC50, Rabbit
[2] = test system: cellular calpains in C2C12 myoblasts; assay: Calpain Inhibition Assay in C2C12 Myoblasts; conditions: read-out: Calp I IC50 Myoblast

Compound: CC(C)[C@H](NC(=O)OCc1ccccc1)C(=O)N[C@H](C=O)Cc1ccccc1
- IC50 [1]: > 1 µM
- IC50 [2]: 40 µM
